“And” between values parts separate entries of the source, which are not always exact repeats. Identical values can stand only once. Like-named read-outs stand apart in the source and are kept apart here.
What was measured:
[1] = brain vs blood plasma; cited from earlier work
human AChE = human AChE (Homo sapiens, UniProt P22303); assay: Ellman's assay: reactivation of paraoxon-ethyl-inhibited human AChE; conditions: read-out: EC50, normalized AChE activity (reactivation); 10 U/mL human AChE, 20 μM paraoxon-ethyl, 0-600 μM reactivator, pH 7.4; mean±SEM
[2] = target: Electrophorus electricus (electric eel) AChE (Electrophorus electricus, UniProt O42275); assay: Ellman's assay: reactivation of paraoxon-inhibited electric eel AChE; conditions: read-out: EC50, AChE activity (reactivation), 10 U/mL eel AChE, mean±SEM

Protein sequences, listed by entry. Tags and fused reporters are not part of them. Lines headed by an entry give the natural chain unless they say otherwise; changes in a name come on top.
UniProt P22303: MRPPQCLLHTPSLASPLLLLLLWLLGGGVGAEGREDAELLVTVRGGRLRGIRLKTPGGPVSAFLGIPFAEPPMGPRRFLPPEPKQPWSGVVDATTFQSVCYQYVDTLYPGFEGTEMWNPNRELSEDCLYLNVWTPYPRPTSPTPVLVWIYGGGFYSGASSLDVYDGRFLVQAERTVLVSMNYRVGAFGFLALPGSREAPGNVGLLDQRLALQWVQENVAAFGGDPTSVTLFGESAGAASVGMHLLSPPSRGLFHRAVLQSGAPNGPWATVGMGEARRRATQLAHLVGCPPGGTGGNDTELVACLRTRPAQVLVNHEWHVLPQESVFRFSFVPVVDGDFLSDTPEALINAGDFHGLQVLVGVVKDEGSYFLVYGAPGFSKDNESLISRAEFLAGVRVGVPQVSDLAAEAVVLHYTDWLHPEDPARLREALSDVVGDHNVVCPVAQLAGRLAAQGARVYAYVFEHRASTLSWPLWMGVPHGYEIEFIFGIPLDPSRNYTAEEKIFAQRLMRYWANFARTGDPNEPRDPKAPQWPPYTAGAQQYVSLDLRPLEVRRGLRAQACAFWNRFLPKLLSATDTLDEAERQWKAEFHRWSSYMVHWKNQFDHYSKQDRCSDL
UniProt O42275: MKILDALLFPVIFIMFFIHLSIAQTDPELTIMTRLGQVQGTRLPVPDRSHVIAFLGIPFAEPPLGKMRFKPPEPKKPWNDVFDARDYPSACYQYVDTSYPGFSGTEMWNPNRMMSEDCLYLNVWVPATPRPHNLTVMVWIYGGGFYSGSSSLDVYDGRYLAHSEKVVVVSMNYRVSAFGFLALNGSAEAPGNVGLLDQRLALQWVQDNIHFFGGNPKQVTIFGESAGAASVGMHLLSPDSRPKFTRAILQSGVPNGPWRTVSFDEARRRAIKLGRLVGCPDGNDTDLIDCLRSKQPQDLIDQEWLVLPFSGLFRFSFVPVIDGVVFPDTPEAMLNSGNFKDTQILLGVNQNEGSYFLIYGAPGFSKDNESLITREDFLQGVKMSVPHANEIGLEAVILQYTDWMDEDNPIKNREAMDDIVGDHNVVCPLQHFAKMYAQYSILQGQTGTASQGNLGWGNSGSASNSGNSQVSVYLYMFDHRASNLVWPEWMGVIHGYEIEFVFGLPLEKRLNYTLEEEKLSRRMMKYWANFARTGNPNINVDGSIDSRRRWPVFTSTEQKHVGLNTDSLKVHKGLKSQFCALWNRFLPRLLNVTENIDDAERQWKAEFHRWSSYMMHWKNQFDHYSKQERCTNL

In the case of 2-pralidoxime, the “concentration within the brain as % of the blood plasma level” value [1] is listed as 4-10%, the EC50 (human AChE) is listed as 30 µM and the EC50 ([2]; 20 μM paraoxon-ethyl, at 20 minutes, pH 7.4) is listed as 16 µM. For the same substance, the EC50 ([2]; 20 μM paraoxon-ethyl, at 25 minutes, 1:1:88:10 isopropanol:DMSO:phosphate:Tris pH 7.4) was 17 µM, the EC50 ([2]; 20 μM paraoxon-ethyl, at 25 minutes, 1:89:10 isopropanol:phosphate:Tris pH 7.4) was 16 µM and the EC50 ([2]; 20 μM paraoxon-methyl, at 20 minutes, pH 7.4) was 34 µM and 35 µM.
